Where a name gives a salt, the structure may show the parent alone.
These molecules were tested against human, mouse or rat recombinant CSE (Homo sapiens, UniProt P32929).

Amino acid sequences for entries named in this document (tags omitted).
UniProt P32929, whole entry, looked up: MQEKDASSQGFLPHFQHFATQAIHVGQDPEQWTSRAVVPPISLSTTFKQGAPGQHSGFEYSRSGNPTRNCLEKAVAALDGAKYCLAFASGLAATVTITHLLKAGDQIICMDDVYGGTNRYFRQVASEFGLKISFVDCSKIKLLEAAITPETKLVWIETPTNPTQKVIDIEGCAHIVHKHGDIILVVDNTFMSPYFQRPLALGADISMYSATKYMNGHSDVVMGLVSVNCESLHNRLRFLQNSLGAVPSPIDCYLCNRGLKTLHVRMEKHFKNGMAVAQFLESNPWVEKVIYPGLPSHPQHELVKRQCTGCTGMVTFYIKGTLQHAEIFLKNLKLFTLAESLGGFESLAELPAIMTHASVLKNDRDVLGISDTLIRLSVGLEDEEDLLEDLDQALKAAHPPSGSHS

SMILES | IC50 [µM]
NNCC(=O)O [2-hydrazinylacetic acid hydrochloride] | < 10
C#CCN(N)c1nnn[nH]1 [Example 3, 5-(1-(prop-2-ynyl)hydrazinyl)-1H-tetrazole] | < 10
CCN(N)c1nnn[nH]1 [Example 4, 5-(1-ethylhydrazinyl)-1H-tetrazole] | < 10
CC(C)N(N)c1nnn[nH]1 [Example 9] | > 100
CN(N)c1nnn[nH]1 [Example 11, 5-(1-methylhydrazinyl)-1H-tetrazole] | < 10
NCCCN(N)c1nnn[nH]1 [Example 12, 3-(1-(1H-tetrazol-5-yl)hydrazinyl)propan-1-amine dihydrochloride] | < 10
NCCN(N)c1nnn[nH]1 [Example 13] | < 10
CC(C)=NNc1nnn[nH]1 [Example 21] | < 10
CN(N)c1nnn(C)n1 [Example 29, 2-methyl-5-(1-methylhydrazinyl)-2H-tetrazole] | > 100

From patent US9725426B2, “Cystathionine-γ-lyase (CSE) inhibitors” (SOVA PHARMACEUTICALS, INC., priority 2012, dated 2017)
